Reference: ChEMBL document CHEMBL1687811, “Outbreak of meropenem-resistant Serratia marcescens comediated by chromosomal AmpC beta-lactamase overproduction and outer membrane protein loss” (2010)

System: Escherichia coli
Details: J53

Question: With GENTAMICIN as the sequence, how does the MIC read?
Answer: The MIC was 0.5 µg/mL.
